Assay results reported in publication PMC5109486, “Computational Drug Target Screening through Protein Interaction Profiles” (Scientific Reports, 2016).

By UniProt entry, the sequences of proteins in these tests, tags left out.
UniProt P21397, whole entry: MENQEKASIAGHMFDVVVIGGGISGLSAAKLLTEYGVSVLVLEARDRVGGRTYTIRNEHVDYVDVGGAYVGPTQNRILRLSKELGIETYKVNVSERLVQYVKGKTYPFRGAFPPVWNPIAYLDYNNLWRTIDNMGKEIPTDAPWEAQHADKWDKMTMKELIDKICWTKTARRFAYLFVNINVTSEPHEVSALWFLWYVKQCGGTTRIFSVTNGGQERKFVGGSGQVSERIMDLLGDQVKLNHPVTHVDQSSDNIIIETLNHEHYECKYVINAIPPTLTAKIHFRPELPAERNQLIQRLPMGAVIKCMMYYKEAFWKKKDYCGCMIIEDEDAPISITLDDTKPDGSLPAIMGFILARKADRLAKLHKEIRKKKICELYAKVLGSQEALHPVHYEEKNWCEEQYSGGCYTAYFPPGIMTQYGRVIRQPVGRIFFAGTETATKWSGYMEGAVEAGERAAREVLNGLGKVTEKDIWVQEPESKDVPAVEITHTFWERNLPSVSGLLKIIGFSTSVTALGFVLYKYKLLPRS

Molecular target: T1, hMAO-A (Homo sapiens, UniProt P21397)
T1 construct: purchased Sigma-Aldrich; host or cells: insect cells (BTI-TN-5B1-4) infected with recombinant baculovirus; microsomal preparation
Assay: hMAO-A enzymatic inhibition, Amplex Red MAO assay (H2O2 from p-tyramine)
Format: biochemical
Details: Table 2; mean ± S.E.M., n = 3; control assays

CC(C)NNC(=O)c1ccncc1 [Iproniazide]
IC50: 6.56 ± 0.76 µM
